Columns and labels:
Type in all cases: cell-based
A2BR = target: T1, A2BR (Homo sapiens, UniProt P29275); test: cAMP accumulation assay with NECA, single-concentration Schild pKd
T1 construct: expressed in transfected cells
T1 sequence (P29275 1-332): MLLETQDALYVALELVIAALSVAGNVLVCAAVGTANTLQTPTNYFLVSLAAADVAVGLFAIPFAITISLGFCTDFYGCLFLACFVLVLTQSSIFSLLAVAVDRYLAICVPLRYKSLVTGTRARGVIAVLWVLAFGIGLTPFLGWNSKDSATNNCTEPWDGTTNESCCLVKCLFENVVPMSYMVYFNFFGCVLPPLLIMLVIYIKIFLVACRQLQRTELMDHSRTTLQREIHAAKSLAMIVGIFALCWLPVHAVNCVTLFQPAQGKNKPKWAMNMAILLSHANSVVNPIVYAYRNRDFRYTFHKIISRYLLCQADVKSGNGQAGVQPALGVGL

Amino acid sequences for entries named in this document (tags omitted). A change or cut given only in a name is not applied to a line headed by its entry.
UniProt P30542, whole entry: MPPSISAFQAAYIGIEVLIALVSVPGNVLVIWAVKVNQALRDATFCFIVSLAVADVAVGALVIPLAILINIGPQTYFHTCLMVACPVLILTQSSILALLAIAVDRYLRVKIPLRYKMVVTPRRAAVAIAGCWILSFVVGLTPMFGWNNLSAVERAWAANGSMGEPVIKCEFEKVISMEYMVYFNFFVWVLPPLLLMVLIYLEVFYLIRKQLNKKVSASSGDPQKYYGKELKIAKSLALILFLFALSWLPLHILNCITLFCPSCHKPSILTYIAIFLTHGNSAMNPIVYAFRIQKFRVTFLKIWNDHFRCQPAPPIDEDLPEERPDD

A2AR = target: T2, A2AR (Homo sapiens, UniProt P29274); test: cAMP accumulation assay with NECA; details: A2AR (10 μM), no forskolin, mean ± SEM
T2 construct: expressed in transfected cells

human A1R = target: T3, human A1R (Homo sapiens, UniProt P30542); test: cAMP accumulation assay with NECA, incl. Schild analysis; details: 1 μM ligand, 10 μM forskolin, mean ± SEM
T3 construct: expressed in transfected cells

Compound | pEC50 of NECA in presence of compound (A2BR; A2BR (10 μM), no forskolin, mean ± SEM) | antagonist efficacy in cAMP assay (A2BR; A2BR, activity only detectable at 10 μM) | Kd (A2BR; affinity, human A2BR) | Kd (A2BR; pKd, A2BR (10 μM), mean ± SEM, N.B. printed for non-binders) | pEC50 of NECA in presence of compound (A2AR) | pEC50 of NECA in presence of compound (human A1R)
Cn1nc(-c2ccccc2)c2cnnc(NCc3ccccc3)c21 [Compound 10b, 1-methyl-3-phenyl-7-benzylaminopyrazolo[3,4-d]pyridazine] | 6.39 ± 0.07 | displayed activity | < 2000 nM | 1740 nM | 5.82 ± 0.33 | 
O=C(Cc1ccccc1)Nc1nc2ccc(Cl)cc2c2nc(-c3ccco3)nn12 [MRS1220] |  |  |  |  |  | 7.32 ± 0.09

Source: PMC9190043, “Discovery of a High Affinity Adenosine A1/A3 Receptor Antagonist with a Novel 7-Amino-pyrazolo[3,4-d]pyridazine Scaffold” (ACS Medicinal Chemistry Letters, 2022)
